How the values were obtained:
[1] = target: human mGlu2 receptor (Homo sapiens, UniProt Q14416); test: [35S]GTPγS binding assay (mGluR2 negative allosteric modulation); settings: for GTPγS - hmGluR2 anGT pIC50: membranes from CHO cells transfected with human mGlu2 receptor, glutamate 60 μM, pIC50 = −log IC50 (M); for GTPγS - hmGluR2 anGT Emax: relative maximal effect: maximal % inhibition relative to the control glutamate response
[2] = system: Wiga rats; test: Reserpine interaction test in rats; settings: Route PO, Time 60, reserpine 10 mg/kg SC
Protocol: 4) Reserpine Interaction Test in Rats
It was investigated to what extent the mydriatic action of test compounds was sufficient to counteract the miosis induced by the monoamines-depleting agent reserpine (10 mg/kg; SC) in Wiga rats.
For instance, Co. No. 1 induced mydriasis before the reserpine challenge (ED50: 1.78 mg/kg s.c.; 1.55 mg/kg p.o., −1 h; 0.89 mg/kg, p.o., −4 h) and reversed the reserpine-induced ptosis (ED50: 1.03 mg/kg s.c.; 0.78 mg/kg p.o., −1 h; 0.78 mg/kg, p.o., −4 h), miosis (ED50: 4.1 mg/kg s.c.; 9.4 mg/kg p.o., −1 h; 9.4 mg/kg, p.o., −4 h) and sedation (ED50: 9.4 mg/kg s.c.; 7.1 mg/kg p.o., −1 h; 14 mg/kg, p.o., −4 h). The effects are illustrated in FIG. 3. […] The reference mGlu2 NAMs RO-4995819 (40 mg/kg, p.o.), RO-4491533 (40 mg/kg, p.o.; 10 mg/kg, s.c.) and [CAS 579473-69-1] (40 mg/kg, s.c.) were devoid of these interactions with reserpine.

The chains behind the UniProt entries cited, without tags or fusion partners. Residues count along the entry.
UniProt Q14416, 19-872 limits assumed: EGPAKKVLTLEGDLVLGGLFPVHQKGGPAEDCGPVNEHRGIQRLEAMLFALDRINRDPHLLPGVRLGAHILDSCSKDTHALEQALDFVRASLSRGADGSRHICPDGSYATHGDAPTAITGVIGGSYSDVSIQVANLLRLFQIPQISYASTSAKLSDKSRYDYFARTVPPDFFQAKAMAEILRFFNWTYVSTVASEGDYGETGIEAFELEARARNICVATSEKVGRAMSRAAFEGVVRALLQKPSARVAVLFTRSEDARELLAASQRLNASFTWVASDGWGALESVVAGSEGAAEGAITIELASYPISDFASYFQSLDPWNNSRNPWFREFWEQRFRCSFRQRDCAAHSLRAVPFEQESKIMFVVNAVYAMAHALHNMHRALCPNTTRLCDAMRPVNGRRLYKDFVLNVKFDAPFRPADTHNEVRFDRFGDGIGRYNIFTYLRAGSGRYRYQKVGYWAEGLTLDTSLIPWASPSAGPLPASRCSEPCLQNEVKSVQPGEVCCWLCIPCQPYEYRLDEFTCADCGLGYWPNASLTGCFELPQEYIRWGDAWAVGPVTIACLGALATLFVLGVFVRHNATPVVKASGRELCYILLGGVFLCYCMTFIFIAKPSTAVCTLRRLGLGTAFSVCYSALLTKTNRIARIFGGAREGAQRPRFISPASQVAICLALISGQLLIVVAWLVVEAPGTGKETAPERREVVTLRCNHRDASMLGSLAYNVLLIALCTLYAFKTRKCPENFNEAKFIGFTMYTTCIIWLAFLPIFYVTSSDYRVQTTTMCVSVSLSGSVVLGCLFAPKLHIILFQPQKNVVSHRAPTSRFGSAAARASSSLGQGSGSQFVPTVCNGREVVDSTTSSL

[3] = system: rats; test: Reversal of the effect of the mGluR2 PAM JNJ-42153605 on scopolamine-induced hyperlocomotion; settings: Route SC, test compound 60 min before recording, criterion total distance >1500 cm
Protocol: 2) Reversal of the Effect of the mGluR2 PAM JNJ-42153605 on Scopolamine-Induced Hyperlocomotion Apparatus
Motor activity was measured in microprocessor-based motor activity arenas (closed gray PVC cylinders with a height of 39 cm and a diameter of 31 cm). Each arena was placed on an infrared LED (8×8 LEDs) lit box (white PVC squared box; 40×40 cm^2; height 12.5 cm. An infrared-sensitive tube camera and a white light source were mounted to the ceiling above the observation chamber to track the animal. The total distance traveled (cm) was recorded and analyzed using the Noldus Ethovision XT Video Tracking System (Version 7.0.418; Noldus, Wageningen, The Netherlands). The intensity of the light within the activity cages (measured in the centre at the level of the floor) ranged between 4 and 8 LUX.
The rats were pretreated with test compound or vehicle at 60 min before the start of the activity recordings and placed into individual cages. […]

GTPγS - hmGluR2 anGT pIC50 [1] | GTPγS - hmGluR2 anGT Emax [1] | Compound | ED50, reversal of reserpine-induced ptosis [2] | ED50, reversal of the effect of JNJ 42153605 on scopolamine-induced hyperlocomotion [3]
7.72 | 103% | Cc1cc(-c2cnn3c2C(=O)N(c2ccc(C(F)(F)F)cc2)C[C@@H]3C)ccn1 [compound 1, (7S)-7-Methyl-3-(2-methylpyridin-4-yl)-5-[4-(trifluoromethyl)phenyl]-6,7-dihydropyrazolo[1,5-a]pyrazin-4(5H)-one] |  | 
7.02 | 103% | COCC1CN(c2ccc(C(F)(F)F)cc2)C(=O)c2c(-c3ccnc(C)c3)cnn21 (stereo not shown) |  | 
6.76 | 105% | Cc1cc(-c2cnn3c2C(=O)N(c2ccc(C(F)(F)F)cc2)C[C@H]3C)ccn1 | 0.5 mg/kg | > 10 mg/kg
6.19 | 103% | C[C@H]1CN(c2ccc(C(F)(F)F)cc2)C(=O)c2c(-c3ccnc(CO)c3)cnn21 |  | 

Source: patent publication US10106542B2, “Substituted 6,7-dihydropyrazolo[1,5-a]pyrazines as negative allosteric modulators of mGluR2 receptors” (Janssen Pharmaceutica NV, priority 2013, dated 2018)
